## Yeast mating assay 1: variants of the scFv Ab-14

Binding partner: SARS-CoV-2 spike HR2 peptide, sequence PDVDLGDISGINAS.

The variants keep the heavy chain, the linker and the frameworks of Ab-14 (scFv order VH, the linker GGGGSGGGGSGGGGS, VL).
VH: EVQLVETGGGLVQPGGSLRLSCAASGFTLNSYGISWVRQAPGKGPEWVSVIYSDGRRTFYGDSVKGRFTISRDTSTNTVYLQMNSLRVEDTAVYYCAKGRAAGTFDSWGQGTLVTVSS
VL: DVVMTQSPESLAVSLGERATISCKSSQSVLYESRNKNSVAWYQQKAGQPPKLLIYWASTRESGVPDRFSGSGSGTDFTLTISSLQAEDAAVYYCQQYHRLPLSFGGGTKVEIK

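The parent was found by panning a naive human phage display library on the peptide. Variants in AAYL50 differ from the parent at up to three CDR positions; double and triple changes were sampled at random. In AlphaSeq, yeast of one mating type display the scFv and yeast of the other type display the target. Mating (16 h, 30 °C) was followed by selection of diploids and sequencing of their barcodes. Scores were corrected for input abundance and mapped to Kd with protein pairs of known affinity run in the same pool. Mating was done three times.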

Positions count from residue 1 of the parent VL; W56P puts P in place of W.
Scale: log10 of Kd in nM, estimated from mating counts; low values are strong binders.
A pair that was not seen in that replicate is written "n.d."; this usually means weak binding, but a binder can also be missed.
Parent in this assay: reference entry 0.65, copy in this library 1.68.
Background: pairings of library AAYL50 with three empty control strains gave a value in 18% of cases (median 4.19, 5th percentile 2.99). Values in that range, when seen in few replicates, are hard to tell from nonspecific mating. For each scFv, signals with the empty controls are counted beside the result, with their mean in brackets.

changes	log10 Kd (nM) by replicate	control signals
W56P+T59L+L102T	n.d. / 3.87 / n.d.	1 of 9 (4.05)
K36I+V39Y+S103D	3.54 / n.d. / 5.73	1 of 9 (4.40)
N37D+S38E+A57S	3.26 / n.d. / n.d.	0 of 9
S25T+Y31W+Q96S	0.55 / 0.79 / 1.00	4 of 9 (4.19)
Y31R+E32R+T59E	n.d. / n.d. / n.d.	2 of 9 (3.29)
S38R+Q96H+L102C	3.65 / 2.78 / 3.16	3 of 9 (4.20)
Q27F+R34M+H98P	n.d. / n.d. / 4.25	3 of 9 (4.16)
E61V+S62D+P101E	n.d. / n.d. / n.d.	2 of 9 (3.61)
S33E+R34M+N35M	0.82 / 0.83 / 1.07	0 of 9
S28H+T59W+R99S	4.74 / n.d. / n.d.	1 of 9 (3.49)
E32T+S38F+R60D	n.d. / n.d. / n.d.	0 of 9
S26I+V29F+L102M	1.52 / 1.84 / 2.13	1 of 9 (3.87)
S26L+E32W+Y97D	3.32 / n.d. / 3.60	2 of 9 (3.53)
V29F+S33I+Y97P	n.d. / n.d. / n.d.	0 of 9
S25V+E32D+E61T	0.14 / 0.50 / 0.20	1 of 9 (3.65)
R34S+T59K	0.46 / 0.72 / 0.58	1 of 9 (4.18)
K24I+S26P+E61F	1.38 / 1.57 / 1.50	1 of 9 (3.35)
L30Q+W56A+Q95F	6.23 / 5.15 / n.d.	4 of 9 (3.64)
S26A+E32R+A57S	2.60 / 2.70 / 2.84	5 of 9 (4.21)
S28Y+A57R+T59V	n.d. / n.d. / n.d.	6 of 9 (4.66)
T59I+R60Q	2.89 / 3.52 / 2.65	1 of 9 (3.79)
L30I+N35Y+S103P	n.d. / n.d. / n.d.	0 of 9
Q27L+L30Q+W56P	n.d. / n.d. / n.d.	1 of 9 (3.64)
K24I+A40N+S62L	n.d. / n.d. / 5.36	1 of 9 (3.35)
K24V+R34F+R99Y	2.06 / 2.00 / 1.66	0 of 9
N35E+Q95A+S103W	3.56 / 3.34 / 4.48	5 of 9 (4.48)
Q27I+E32G+N37G	1.06 / 1.12 / 1.02	1 of 9 (5.04)
S33G+K36Y+L102W	n.d. / 3.89 / 2.70	1 of 9 (4.90)
L30A+S38I+L102F	4.85 / 4.01 / n.d.	2 of 9 (3.41)
Y31W+S33T+S103K	1.81 / 1.83 / 3.43	0 of 9
L30R+Y31N	1.04 / 1.32 / 1.44	4 of 9 (3.86)
S26N+R60H+Q95S	5.70 / 5.30 / n.d.	2 of 9 (4.14)
A57V+E61V+R99F	1.14 / 1.35 / 1.46	4 of 9 (4.33)
R34A	0.70 / 0.80 / 0.81	3 of 9 (3.23)
K24L	n.d. / n.d. / n.d.	0 of 9
R99T	4.65 / 4.01 / n.d.	2 of 9 (4.40)
S25Y+R60Q+Q95I	4.86 / 3.69 / 6.19	4 of 9 (4.74)
A57F+S62I+P101N	n.d. / n.d. / n.d.	1 of 9 (4.00)
S62Y	0.72 / 1.04 / 0.96	0 of 9
K24G+V39I+Q95N	1.61 / 1.59 / 2.30	4 of 9 (4.08)
Y31N+N37E+R99H	n.d. / n.d. / n.d.	1 of 9 (4.04)
S26T+S28C+Q96T	n.d. / n.d. / 5.45	2 of 9 (4.18)
T59A+S62W	n.d. / n.d. / 5.88	4 of 9 (4.13)

The 7 strongest on average among those seen in every replicate, once more:

{"changes": "S25V+E32D+E61T", "log10 Kd (nM) by replicate": "0.14 / 0.50 / 0.20", "control signals": "1 of 9 (3.65)"}
{"changes": "R34S+T59K", "log10 Kd (nM) by replicate": "0.46 / 0.72 / 0.58", "control signals": "1 of 9 (4.18)"}
{"changes": "R34A", "log10 Kd (nM) by replicate": "0.70 / 0.80 / 0.81", "control signals": "3 of 9 (3.23)"}
{"changes": "S25T+Y31W+Q96S", "log10 Kd (nM) by replicate": "0.55 / 0.79 / 1.00", "control signals": "4 of 9 (4.19)"}
{"changes": "S62Y", "log10 Kd (nM) by replicate": "0.72 / 1.04 / 0.96", "control signals": "0 of 9"}
{"changes": "S33E+R34M+N35M", "log10 Kd (nM) by replicate": "0.82 / 0.83 / 1.07", "control signals": "0 of 9"}
{"changes": "Q27I+E32G+N37G", "log10 Kd (nM) by replicate": "1.06 / 1.12 / 1.02", "control signals": "1 of 9 (5.04)"}

Source: Engelhart et al. 2022 (doi:10.1038/s41597-022-01779-4), MIT Lincoln Laboratory and A-Alpha Bio; data file from the FLAb repository.